Laboratory results taken from ChEMBL document CHEMBL1147795, “cis-2,5-dicyanopyrrolidine inhibitors of dipeptidyl peptidase IV: synthesis and in vitro, in vivo, and X-ray crystallographic characterization” (J Med Chem, 2006).

By UniProt entry, the sequences of proteins in these tests, tags left out. Where a name states a change or a piece, a line headed by the entry shows the natural chain unless it says otherwise.
UniProt Q6V1X1: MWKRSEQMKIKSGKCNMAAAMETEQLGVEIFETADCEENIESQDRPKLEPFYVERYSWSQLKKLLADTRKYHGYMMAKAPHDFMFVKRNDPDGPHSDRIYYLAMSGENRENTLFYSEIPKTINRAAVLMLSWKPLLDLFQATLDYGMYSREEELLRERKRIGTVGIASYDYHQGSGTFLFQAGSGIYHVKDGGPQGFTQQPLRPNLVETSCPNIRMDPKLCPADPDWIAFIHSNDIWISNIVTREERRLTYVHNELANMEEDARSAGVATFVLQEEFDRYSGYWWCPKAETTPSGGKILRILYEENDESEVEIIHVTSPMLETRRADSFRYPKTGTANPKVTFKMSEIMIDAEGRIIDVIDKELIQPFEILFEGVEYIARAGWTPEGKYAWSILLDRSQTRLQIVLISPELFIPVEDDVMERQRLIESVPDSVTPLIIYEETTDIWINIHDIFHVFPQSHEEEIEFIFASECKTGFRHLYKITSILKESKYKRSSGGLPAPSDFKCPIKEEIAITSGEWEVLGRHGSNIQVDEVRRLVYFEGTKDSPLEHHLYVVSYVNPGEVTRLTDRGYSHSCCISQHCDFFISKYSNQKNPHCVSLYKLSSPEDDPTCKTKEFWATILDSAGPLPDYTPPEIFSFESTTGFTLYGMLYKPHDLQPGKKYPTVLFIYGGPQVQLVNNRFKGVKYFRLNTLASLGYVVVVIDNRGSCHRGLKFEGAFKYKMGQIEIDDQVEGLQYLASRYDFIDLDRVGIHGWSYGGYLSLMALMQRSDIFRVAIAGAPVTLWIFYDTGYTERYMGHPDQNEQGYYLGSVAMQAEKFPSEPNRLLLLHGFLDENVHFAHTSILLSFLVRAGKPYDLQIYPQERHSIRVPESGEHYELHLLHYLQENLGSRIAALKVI
UniProt Q86TI2: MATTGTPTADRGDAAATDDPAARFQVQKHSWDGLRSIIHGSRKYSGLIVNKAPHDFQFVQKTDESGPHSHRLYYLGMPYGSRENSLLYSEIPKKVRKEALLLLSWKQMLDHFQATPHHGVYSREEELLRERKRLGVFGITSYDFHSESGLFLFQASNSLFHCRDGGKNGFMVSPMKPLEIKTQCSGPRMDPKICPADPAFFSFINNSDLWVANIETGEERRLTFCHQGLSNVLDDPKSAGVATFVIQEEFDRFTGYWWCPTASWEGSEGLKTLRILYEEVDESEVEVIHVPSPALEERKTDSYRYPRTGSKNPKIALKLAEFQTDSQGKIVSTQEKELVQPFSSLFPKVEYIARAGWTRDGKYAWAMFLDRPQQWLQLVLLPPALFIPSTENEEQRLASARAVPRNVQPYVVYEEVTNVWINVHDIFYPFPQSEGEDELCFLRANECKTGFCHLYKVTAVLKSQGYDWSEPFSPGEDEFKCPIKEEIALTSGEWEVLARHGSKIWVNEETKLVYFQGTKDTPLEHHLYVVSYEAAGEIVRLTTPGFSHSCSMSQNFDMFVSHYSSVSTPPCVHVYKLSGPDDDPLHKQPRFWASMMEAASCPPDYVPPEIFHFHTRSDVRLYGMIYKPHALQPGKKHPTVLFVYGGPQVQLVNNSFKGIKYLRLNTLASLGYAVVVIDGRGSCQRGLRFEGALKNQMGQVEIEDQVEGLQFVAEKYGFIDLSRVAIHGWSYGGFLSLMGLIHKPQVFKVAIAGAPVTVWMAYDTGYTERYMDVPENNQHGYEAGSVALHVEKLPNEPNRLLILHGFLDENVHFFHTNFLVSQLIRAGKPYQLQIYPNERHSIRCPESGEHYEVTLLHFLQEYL
UniProt P27487, whole entry: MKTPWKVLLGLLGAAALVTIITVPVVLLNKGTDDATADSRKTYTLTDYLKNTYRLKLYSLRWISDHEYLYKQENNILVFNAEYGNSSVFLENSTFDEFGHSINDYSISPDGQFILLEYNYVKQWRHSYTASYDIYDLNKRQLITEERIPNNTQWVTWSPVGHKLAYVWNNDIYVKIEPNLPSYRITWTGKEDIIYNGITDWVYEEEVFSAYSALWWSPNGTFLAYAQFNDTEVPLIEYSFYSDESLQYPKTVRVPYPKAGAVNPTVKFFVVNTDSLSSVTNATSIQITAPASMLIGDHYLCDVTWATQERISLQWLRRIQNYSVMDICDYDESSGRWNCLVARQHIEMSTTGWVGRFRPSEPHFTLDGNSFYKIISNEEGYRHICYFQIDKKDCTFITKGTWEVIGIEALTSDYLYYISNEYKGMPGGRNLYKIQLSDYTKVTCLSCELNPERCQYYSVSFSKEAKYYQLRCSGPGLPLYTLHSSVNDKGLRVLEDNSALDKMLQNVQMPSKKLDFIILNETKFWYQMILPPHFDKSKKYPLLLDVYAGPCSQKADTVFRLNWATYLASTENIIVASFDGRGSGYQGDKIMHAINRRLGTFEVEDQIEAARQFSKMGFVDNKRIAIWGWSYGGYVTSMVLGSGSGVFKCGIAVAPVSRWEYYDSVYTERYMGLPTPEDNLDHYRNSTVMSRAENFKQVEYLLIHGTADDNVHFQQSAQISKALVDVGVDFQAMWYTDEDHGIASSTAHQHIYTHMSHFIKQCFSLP
UniProt Q9NQW7: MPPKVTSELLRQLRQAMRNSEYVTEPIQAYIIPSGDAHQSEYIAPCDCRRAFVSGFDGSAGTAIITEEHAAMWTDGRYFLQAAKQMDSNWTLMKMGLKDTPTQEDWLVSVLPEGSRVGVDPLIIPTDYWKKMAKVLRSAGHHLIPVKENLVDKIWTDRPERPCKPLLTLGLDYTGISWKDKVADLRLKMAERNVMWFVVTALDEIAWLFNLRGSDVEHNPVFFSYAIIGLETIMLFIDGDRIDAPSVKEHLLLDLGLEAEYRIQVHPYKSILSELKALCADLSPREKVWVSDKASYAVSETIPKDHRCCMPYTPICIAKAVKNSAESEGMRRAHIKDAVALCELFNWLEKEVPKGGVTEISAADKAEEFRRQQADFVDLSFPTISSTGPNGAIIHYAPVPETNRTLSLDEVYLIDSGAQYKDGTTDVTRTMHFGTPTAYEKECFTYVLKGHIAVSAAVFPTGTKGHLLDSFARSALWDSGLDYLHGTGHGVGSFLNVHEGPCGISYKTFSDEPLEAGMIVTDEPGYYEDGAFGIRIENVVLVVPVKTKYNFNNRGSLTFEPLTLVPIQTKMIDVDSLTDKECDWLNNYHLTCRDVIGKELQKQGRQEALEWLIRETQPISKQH

Key:
Dipeptidyl peptidase 8 = Dipeptidyl peptidase 8 (Homo sapiens, UniProt Q6V1X1); experiment: Inhibition of DPP8
Dipeptidyl peptidase 9 = Dipeptidyl peptidase 9 (Homo sapiens, UniProt Q86TI2); experiment: Inhibition of DPP9
Dipeptidyl peptidase 4 = Dipeptidyl peptidase 4 (Homo sapiens, UniProt P27487); experiment: Inhibition of human recombinant DPP4
Prolyl endopeptidase FAP = molecular target: T1, Prolyl endopeptidase FAP (Homo sapiens, UniProt Q12884); experiment: Inhibition of FAP
T1 sequence (Q12884 whole entry): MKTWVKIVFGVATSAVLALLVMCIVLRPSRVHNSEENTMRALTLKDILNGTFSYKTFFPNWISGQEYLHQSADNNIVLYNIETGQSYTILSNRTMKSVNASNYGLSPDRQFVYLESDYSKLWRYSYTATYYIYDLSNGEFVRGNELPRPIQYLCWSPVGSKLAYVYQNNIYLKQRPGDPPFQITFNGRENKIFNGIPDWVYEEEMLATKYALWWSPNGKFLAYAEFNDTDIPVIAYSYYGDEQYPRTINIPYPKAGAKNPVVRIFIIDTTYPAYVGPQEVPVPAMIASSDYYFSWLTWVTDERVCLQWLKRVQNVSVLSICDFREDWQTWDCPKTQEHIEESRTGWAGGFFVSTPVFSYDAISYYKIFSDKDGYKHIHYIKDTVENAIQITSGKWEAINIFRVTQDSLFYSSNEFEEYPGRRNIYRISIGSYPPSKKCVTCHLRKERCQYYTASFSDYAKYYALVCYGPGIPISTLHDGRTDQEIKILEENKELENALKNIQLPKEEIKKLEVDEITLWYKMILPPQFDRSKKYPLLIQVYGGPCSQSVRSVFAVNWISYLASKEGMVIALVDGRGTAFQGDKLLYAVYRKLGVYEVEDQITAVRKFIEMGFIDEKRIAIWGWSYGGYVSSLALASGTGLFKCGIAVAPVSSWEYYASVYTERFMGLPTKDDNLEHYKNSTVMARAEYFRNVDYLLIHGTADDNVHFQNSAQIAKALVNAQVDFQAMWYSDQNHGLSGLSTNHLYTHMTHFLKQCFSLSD

Xaa-Pro aminopeptidase 1 = Xaa-Pro aminopeptidase 1 (Homo sapiens, UniProt Q9NQW7); experiment: Inhibition of APP

| Structure (SMILES) | IC50 (Dipeptidyl peptidase 8) [µM] | IC50 (Dipeptidyl peptidase 9) [µM] | IC50 (Dipeptidyl peptidase 4) [µM] | IC50 (Prolyl endopeptidase FAP) [µM] | further results |
| --- | --- | --- | --- | --- | --- |
| N#C[C@@H]1CC[C@H](C#N)N1C(=O)CNC12CC3CC(CC(C3)C1)C2 | > 30 | > 30 | 0.106 |  |  |
| N#C[C@H]1CC[C@H](C#N)N1C(=O)CNC12CC3CC(CC(C3)C1)C2 |  |  | > 30 |  |  |

Further lines, with some results ahead:

| IC50 (Dipeptidyl peptidase 8) [µM] | IC50 (Dipeptidyl peptidase 9) [µM] | IC50 (Dipeptidyl peptidase 4) [µM] | IC50 (Prolyl endopeptidase FAP) [µM] | Structure (SMILES) | further results |
| --- | --- | --- | --- | --- | --- |
| > 30 |  |  |  | CCOCC1(NCC(=O)N2[C@H](C#N)CC[C@@H]2C#N)CCCC1 |  |
|  |  |  | > 30 | CCCCOCC1(NCC(=O)N2[C@H](C#N)CC[C@@H]2C#N)CCCC1 | IC50 (Xaa-Pro aminopeptidase 1): > 30 µM |
| > 30 | > 30 |  |  | N#C[C@@H]1CC[C@H](C#N)N1C(=O)CNC1(CO)CCCC1 |  |
|  |  |  | > 30 | N#C[C@@H]1CC[C@H](C#N)N1C(=O)CNC12CC3CC(CC1C3)C2 |  |
